Data on 69 compounds can be found in PubChem BioAssay AID1508602 (The Scripps Research Institute Molecular Screening Center, 2020).

Sequences of proteins named here, by UniProt entry; tags and fusion partners are left off.
UniProt Q8TDV0, whole entry: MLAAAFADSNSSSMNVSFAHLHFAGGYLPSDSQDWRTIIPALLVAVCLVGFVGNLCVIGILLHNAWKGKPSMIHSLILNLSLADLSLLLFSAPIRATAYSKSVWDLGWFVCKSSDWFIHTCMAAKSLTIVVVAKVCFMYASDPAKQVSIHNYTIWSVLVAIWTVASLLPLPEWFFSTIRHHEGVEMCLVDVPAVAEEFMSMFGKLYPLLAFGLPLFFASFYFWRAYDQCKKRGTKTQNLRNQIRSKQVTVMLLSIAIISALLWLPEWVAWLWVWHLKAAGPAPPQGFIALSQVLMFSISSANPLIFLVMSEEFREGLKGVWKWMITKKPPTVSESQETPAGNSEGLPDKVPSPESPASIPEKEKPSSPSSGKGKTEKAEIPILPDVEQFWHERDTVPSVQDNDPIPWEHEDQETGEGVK

The list shows a part of the results, in another mix than the full data. Activity calls are given as the source filed them. Rule as the data show it: active = activation above about 4.9%; inactive = the rest.

This test concerns the target G-protein coupled receptor 151 (Homo sapiens) (UniProt Q8TDV0). Briefly: activates the human receptor GPR151, primary screen, cell-based, PathHunter beta-arrestin, luminescence (AID 1508602).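 Also: 0% = median of compound wells and 100% = cells with positive control.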 The conditions noted are these: PathHunter beta-arrestin GPR151 cells, at 11.2 µM, active compounds read high.
In the case of `N#CC1(Nc2ccccc2)CCN(Cc2ccccc2)CC1`, the activation is inactive: 0.521%.

`CC1CN(CCc2ccccc2)CCC1=O` (centres undefined): the activation was inactive: 0.0837%.

As for `CCOC(=O)N1CCC(Nc2ccc(OC)cc2)CC1`, the activation is inactive: -1.5%.

As to `CN(CCOC(=O)C(O)(c1ccccc1)c1ccccc1)C(C)(C)C`, the activation was inactive: 1.23%.

`COc1ccc(C(=O)NCC2(N3CCCCC3)CCCCC2)c(OC)c1OC`: the activation is inactive: -0.218%.

Regarding `CCCN1CCC(Nc2ccc(OC)c(OC)c2)CC1`, the activation is inactive: 1.77%.

Regarding `COc1ccc(C(=O)NCC2(N3CCCCC3)CCCCC2)cc1`, the activation was inactive: 0.0355%.

Take `CCOC(=O)N1CCC(Nc2cccc(C)c2)CC1`: the activation was inactive: 0.184%.

`COc1cccc(CN(CCCl)CCCl)c1`: the activation was inactive: 0.391%.

For `CN(C)P(=O)(OC(C)(C)C(Cl)(Cl)Cl)SCCCCl` (centres undefined), the activation is inactive: 0.569%.

With `CCOC(=O)N1CCC(Nc2ccc(F)cc2)CC1`, the activation is inactive: -0.389%.

As for `COc1ccc(NC2CCN(CCc3ccccn3)CC2)cc1`, the activation was inactive: 0.284%.

With `O=C1CCN(Cc2ccccc2)CC1`, the activation is inactive: -0.662%.

On to `CCCN1CCC(Nc2ccc(F)cc2)CC1`, for which the activation was inactive: 1.13%.

For the compound `CC(=O)N1CCc2ccc(N(C(=O)C(C)(C)C)C3CCN(Cc4ccccc4)CC3)cc21`, the activation was inactive: -0.0701%.

On to `O=C(NCC1(N2CCOCC2)CCCCC1)c1cc(=O)[nH]c2ccccc12`, for which the activation is inactive: -1.42%.

For the compound `COc1ccccc1/C=C/CN1CCN(C(C)=O)CC1`, the activation was inactive: 0.444%.

Consider `CN1CCN(CCOC(=O)C(O)(c2ccccc2)c2ccccc2)CC1`, for which the activation is inactive: -0.159%.

As for `CCN1CCC(Nc2ccc(Cl)cc2)CC1`, the activation was inactive: 1.26%.

As for `COc1ccc(CCN2CCC(N(Cc3ccco3)C(C)=O)CC2)cc1`, the activation was inactive: 1.04%.

With `O=C(NCC1(N2CCCCC2)CCCCC1)c1cccc([N+](=O)[O-])c1`, the activation was inactive: -0.568%.

In the case of `COc1ccc(NC2CCN(CCc3cccs3)CC2)cc1`, the activation is inactive: 1.2%.

For `CCN1CCC(Nc2ccccc2F)CC1`, the activation is inactive: 1.91%.

`CCCOc1ccc(C(=O)NCC2(N(C)C)CCCCC2)cc1OC`: the activation was inactive: -1.46%.

`COc1cccc(OC)c1CN1CCC(Nc2ccccc2)CC1`: the activation is inactive: -1.15%.

As for `CN1CCC(Nc2cccc(F)c2)CC1`, the activation was inactive: 1.94%.

Turning to `O=C(NCC1(N2CCCCC2)CCCCC1)c1cncc(Br)c1`, the activation is inactive: 0.226%.

Turning to `Cc1cc(C(=O)NCC2(N3CCOCC3)CCCCC2)c2ccccc2n1`, the activation is inactive: -1.19%.

Regarding `COc1cc(OC)c(C(=O)NCC2(N(C)C)CCCCC2)cc1OC`, the activation is inactive: 0.361%.

For `Cc1ccc(C(=O)O)cc1N(CCCl)CCCl`, the activation is inactive: -0.0534%.

Turning to `FC(F)(F)Oc1ccc(NC2CCNCC2)cc1`, the activation was inactive: -0.717%.

Take `COc1ccc(CN(CCCl)CCCl)cc1Cl`: the activation is inactive: -1.09%.

For the compound `O=C1CCN(CCc2ccccc2)CC1`, the activation is inactive: -0.436%.

Take `CN1CCC(Nc2ccc(F)cc2)CC1`: the activation was inactive: -1.33%.

Take `CCOC(=O)N1CCC(Nc2ccc(Cl)cc2)CC1`: the activation was inactive: 0.121%.

For `CCOC(=O)N1CCC(Nc2ccc(C)cc2)CC1`, the activation is inactive: 1.82%.

For `O=C(NCC1(N2CCOCC2)CCCCC1)c1ccc2c(c1)OCO2`, the activation was inactive: 0.679%.

With `NC(=O)C1(Nc2ccccc2)CCN(Cc2ccccc2)CC1`, the activation was inactive: 0.152%.

Regarding `COc1ccc(C(=O)NCC2(N3CCOCC3)CCCCC2)cc1OC`, the activation was inactive: 0.859%.

As for `COc1cc(C(=O)NCC2(N3CCOCC3)CCCCC2)cc(OC)c1C`, the activation was inactive: -0.447%.

On to `CCCN1CCC(Nc2cc(OC)cc(OC)c2)CC1`, for which the activation is inactive: -0.0672%.

For the compound `c1ccc(CN2CCC(Nc3ccccc3)CC2)cc1`, the activation was inactive: -2.25%.

On to `COc1ccc(CCN2CCC(Nc3ccc(OC)cc3)CC2)cc1`, for which the activation was inactive: -1.12%.

As to `CC(=O)N1CCN(C/C=C/c2ccccc2[N+](=O)[O-])CC1`, the activation is inactive: 1.92%.

Turning to `COc1cccc(OC)c1CN1CCC(=O)CC1`, the activation is inactive: 0.45%.

For `N#Cc1ccc(C(=O)NCC2(N3CCCCC3)CCCCC2)cc1`, the activation is inactive: 0.282%.

Turning to `CC(C)(C)OC(=O)N1CCC(Nc2ccc(Cl)cc2Cl)CC1`, the activation is inactive: 1.58%.

With `CN1CCC(Nc2ccccc2F)CC1`, the activation is inactive: 0.148%.

Regarding `CCOP(=O)(OCC)SCC(=O)N(CC)CC`, the activation is inactive: -0.621%.

As for `CCN1CCC(Nc2ccc(F)cc2)CC1`, the activation is inactive: 0.281%.

As for `CC1CN(C)C(C)CC1Nc1ccccc1` (centres undefined), the activation is inactive: 0.0922%.

Turning to `O=C(NCC1(N2CCCCC2)CCCCC1)c1ccc([N+](=O)[O-])s1`, the activation is inactive: -0.589%.

Take `Fc1cccc(NC2CCN(CCc3ccccc3)CC2)c1`: the activation was inactive: 0.105%.

In the case of `Clc1ccc(NC2CCN(Cc3ccccc3)CC2)cc1`, the activation was inactive: 0.284%.

For `CCCN1CCC(Nc2ccc(Cl)cc2)CC1`, the activation was active: 5.27%.

Regarding `CC1CN(Cc2ccccc2)CCC1=O` (centres undefined), the activation is inactive: 1.23%.

On to `[C-]#N.[K+].c1ccc2c(c1)OCCOCCOc1ccccc1OCCOCCO2`, for which the activation was inactive: 1.58%.

For `CN(C)C1(CNC(=O)c2cc3c(s2)CCC3)CCCCC1`, the activation was inactive: -0.882%.

Consider `CN1CCC(Nc2ccccc2Cl)CC1`, for which the activation was inactive: -0.642%.

As for `CN1CCC(Nc2ccc(Cl)cc2)CC1`, the activation is inactive: -0.835%.

`COc1ccc(NC2CCN(Cc3ccncc3)CC2)cc1`: the activation is inactive: 0.0662%.

`CN(C)C1(CNC(=O)c2cc(=O)[nH]c3ccccc23)CCCCC1`: the activation is inactive: 0.264%.

On to `COc1cc(OC)cc(C(=O)NCC2(N3CCOCC3)CCCCC2)c1`, for which the activation is inactive: -0.222%.

In the case of `CCC(CO)(C(=O)OC1CN2CCC1CC2)c1ccccc1` (centres undefined), the activation was inactive: 0.756%.

Take `O=C(O)C1(Nc2ccccc2)CCN(Cc2ccccc2)CC1`: the activation is inactive: -0.632%.

Take `CCCOc1ccc(C(=O)NCC2(N(C)C)CCCCC2)cc1`: the activation is inactive: 1.26%.

For `CN1CCC(Nc2ccc(F)c(Cl)c2)CC1`, the activation is inactive: -1.05%.

Consider `CC(C)(C)OC(=O)N1CCC(Nc2ccc(F)cc2F)CC1`, for which the activation was inactive: -0.403%.

Consider `Fc1ccc(NC2CCN(Cc3ccccc3)CC2)cc1F`, for which the activation is inactive: 0.0556%.
